Assay results as given in patent publication US20140315800A1 (published 2014).
Blank lines part the entries; values can stand above or below the binder they belong to.

By UniProt entry, the sequences of proteins in these tests, tags left out. Where a name states a change or a piece, a line headed by the entry shows the natural chain unless it says otherwise.
UniProt P35346: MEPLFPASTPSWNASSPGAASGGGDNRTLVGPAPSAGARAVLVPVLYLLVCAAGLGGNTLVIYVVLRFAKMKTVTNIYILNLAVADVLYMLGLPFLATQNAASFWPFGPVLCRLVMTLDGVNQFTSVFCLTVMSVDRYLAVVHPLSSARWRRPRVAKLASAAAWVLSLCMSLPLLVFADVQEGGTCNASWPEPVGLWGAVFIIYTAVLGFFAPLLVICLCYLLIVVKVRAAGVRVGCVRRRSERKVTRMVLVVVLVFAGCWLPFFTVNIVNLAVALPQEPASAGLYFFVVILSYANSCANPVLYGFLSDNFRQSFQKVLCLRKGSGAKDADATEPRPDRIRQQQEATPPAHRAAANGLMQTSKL
UniProt P32745: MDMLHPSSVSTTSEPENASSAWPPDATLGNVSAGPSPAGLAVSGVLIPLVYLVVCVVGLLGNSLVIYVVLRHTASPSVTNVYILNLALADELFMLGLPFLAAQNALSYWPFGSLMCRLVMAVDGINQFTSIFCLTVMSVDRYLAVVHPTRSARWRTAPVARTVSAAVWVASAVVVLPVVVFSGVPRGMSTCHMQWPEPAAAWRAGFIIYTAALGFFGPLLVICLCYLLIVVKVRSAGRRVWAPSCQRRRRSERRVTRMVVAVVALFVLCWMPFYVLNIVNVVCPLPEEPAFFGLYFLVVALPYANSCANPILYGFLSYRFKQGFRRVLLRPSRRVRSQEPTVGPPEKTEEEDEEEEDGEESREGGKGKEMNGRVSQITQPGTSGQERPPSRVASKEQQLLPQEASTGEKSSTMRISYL
UniProt P30872: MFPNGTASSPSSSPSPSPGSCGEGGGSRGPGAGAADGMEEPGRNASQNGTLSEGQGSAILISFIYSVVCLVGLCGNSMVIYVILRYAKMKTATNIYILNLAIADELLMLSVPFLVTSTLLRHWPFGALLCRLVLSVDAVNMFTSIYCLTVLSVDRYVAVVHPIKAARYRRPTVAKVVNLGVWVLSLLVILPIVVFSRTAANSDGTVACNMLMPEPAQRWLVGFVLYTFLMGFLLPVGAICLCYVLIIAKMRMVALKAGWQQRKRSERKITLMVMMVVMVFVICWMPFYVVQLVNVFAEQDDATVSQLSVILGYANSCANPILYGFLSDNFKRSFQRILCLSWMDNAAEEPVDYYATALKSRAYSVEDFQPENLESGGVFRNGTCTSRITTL

Legend:
Assay in all cases: radioligand competition, membranes
[1] = molecular target: T1, SSTR5 (Human, UniProt P35346 1-364)
T1 construct: whole, on cells; receptor expression cells in the cAMP assay; also called somatostatin receptor 5

[2] = molecular target: T2, SSTR3 (Human, UniProt P32745 1-418)
T2 construct: whole, on cells; receptor expression cells in the cAMP assay; also called somatostatin receptor 3

[3] = molecular target: T3, SSTR1 (Human, UniProt P30872 1-391)
T3 construct: whole, on cells; receptor expression cells in the cAMP assay; also called somatostatin receptor 1

B2: S1-2C(disialo(Bn))-SRIF28 (peptide)
peptide: CCANSNPAMAPRERKAGCKNFFWKTFTSC
modifications: Ser 1 replaced by two consecutive Cys each with a disialo(Bn) sugar chain; disulfide Cys17-Cys28 (SRIF28 numbering)
IC50 [2]: 2.59 nM

Binder: SANSNPAMAPRERKAGCKNFFWKTFTSC (disialo sugar chain on Asn 5; disulfide Cys17-Cys28) [N5N(disialo)-SRIF28]
IC50 [3]: 3.02 nM

Now from value to binder:

IC50 [1]: 1.86 nM
B1: 30C(disialo)-SRIF28 (peptide)
peptide: SANSNPAMAPRERKAGCKNFFWKTFTSCTC
modifications: disialo sugar chain on Cys at position 30 (-W-Cys added after Cys28); disulfide Cys17-Cys28

Ki [3]: 5.73 nM
Binder: SANSNPAMCPRERKAGCKNFFWKTFTSC (disialo sugar chain on Cys 9; D-Trp at 22; disulfide Cys17-Cys28) [A9C(disialo)-D-Trp22-SRIF28]
